Test results published in paper doi:10.1101/2021.07.22.453419.

Biological target: Papain (E.C.3.4.22.2, from papaya latex) (papaya) (UniProt P00784)
Conditions: domain or fragment

Ki: 6 nM
Substance: potato multicystatin domain StCYS5
